# AlphaSeq binding of Ab-91 heavy chain variants to a spike HR2 peptide

Target: peptide PDVDLGDISGINAS, taken from heptad repeat 2 (HR2) of SARS-CoV-2 spike.

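Phage display of a naive human antibody library on the peptide gave the parent. The library (AAYL51) carries one to three amino acid substitutions per variant, with no insertions or deletions. AlphaSeq pools MATa yeast showing the antibodies with MATalpha yeast showing the peptide. Pairs that bind mate more often; barcode pairs of the diploids are counted by sequencing. A regression on co-assayed BCL2-family reference pairs converts the normalised counts of each replicate to an apparent Kd. Each pool was mated in three replicate cultures.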

Each scFv is VL, the linker GGGGSGGGGSGGGGS, VH, as in the parent Ab-91, and differs from it in the CDRs of the heavy chain only.
VL: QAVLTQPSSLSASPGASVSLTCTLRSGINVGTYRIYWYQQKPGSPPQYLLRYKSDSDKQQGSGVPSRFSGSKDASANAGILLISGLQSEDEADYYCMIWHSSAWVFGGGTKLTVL
VH: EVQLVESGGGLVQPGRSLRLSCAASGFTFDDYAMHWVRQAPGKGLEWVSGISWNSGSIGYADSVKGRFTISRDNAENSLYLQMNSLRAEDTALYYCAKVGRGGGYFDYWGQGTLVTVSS

Changes read parent residue, position, new residue, counted from the first residue of the VH shown. All variants listed here change S57 of the VH, counted from its first residue. Each Kd is an estimate from the mating assay, the geometric mean of the replicates in which the pair was seen; lower is stronger. "nd" means that the variant was in the library but no mating with the target was seen in any replicate; the authors take this as a sign of poor binding, and no number exists. Parent in this assay: reference entry 72 nM, copy in this library 7.5 nM. Empty control strains, which show no peptide, gave a signal in 21% of pairings with library AAYL51; the median was 34 µM and 95% of these signals were weaker than 1.8 µM. No background was subtracted.

The variant H35W+S57T+I58N showed 25 µM (1 of 3 replicates). With S57H+S63R+Y108T the result was 26 nM (3 of 3 replicates). The variant F27E+S57H gave 12 µM (3 of 3 replicates). For S57L+V64N+G100N, the assay gave nd (0 of 3 replicates). With D31W+S57E+Y105E the result was 170 nM (3 of 3 replicates).

The variant M34S+S57P+S63A gave 97 µM (2 of 3 replicates). For S55G+S57R+R101D, the assay gave 18 µM (2 of 3 replicates). The variant Y32R+S57I+D107L gave nd (0 of 3 replicates). The variant G56A+S57A+Y108L showed 5.3 nM (3 of 3 replicates). With S57M+V64S+G104K the result was 27 µM (1 of 3 replicates).

The variant S57R+G59M+Y108P gave nd (0 of 3 replicates). The variant S57H+Y60K+D107H showed 46 µM (2 of 3 replicates). For G26L+N54P+S57F, the assay gave 6.6 µM (1 of 3 replicates). With D31R+S57N the result was 4.8 nM (3 of 3 replicates). For F27W+S57W+V64T, the assay gave 31 µM (2 of 3 replicates).

The variant G50N+S57P+D107G showed 50 µM (2 of 3 replicates). The variant S57V+Y60H showed 82 µM (3 of 3 replicates). The variant S57L+I58L gave nd (0 of 3 replicates). For H35E+N54E+S57F, the assay gave 190 µM (1 of 3 replicates). The variant S52A+S57K showed nd (0 of 3 replicates).

With G26I+S57R+V99D the result was 13 µM (1 of 3 replicates). For S57N+Y60H+V64W, the assay gave 5.1 µM (1 of 3 replicates). The variant S57P+D62C+R101P gave 46 µM (2 of 3 replicates). For S57T+A61I+V64D, the assay gave 10 µM (2 of 3 replicates). With Y32M+I51G+S57I the result was nd (0 of 3 replicates).

With G26W+Y32V+S57R the result was 100 µM (3 of 3 replicates). The variant Y32F+S57G+D107F gave 720 nM (3 of 3 replicates). The variant S57H showed 19 µM (1 of 3 replicates). With S57C+G102Y+G103K the result was nd (0 of 3 replicates). The variant S57Y+V99C+G102L gave 40 µM (1 of 3 replicates).

With D31M+S57H the result was 100 nM (3 of 3 replicates).

The first 4 entries again:

changes	apparent Kd	seen in
H35W+S57T+I58N	25 µM	1 of 3
S57H+S63R+Y108T	26 nM	3 of 3
F27E+S57H	12 µM	3 of 3
S57L+V64N+G100N	nd	0 of 3

Values reported by Engelhart et al. 2022, doi:10.1038/s41597-022-01779-4 (FLAb copy).